## Antibody variant affinities, Ab-14 heavy chain, assay B

Antigen: PDVDLGDISGINAS, a 14-residue peptide of the SARS-CoV-2 spike HR2 region.

Parent: Ab-14, a human scFv built as VH, a (GGGGS)3 linker, VL. Only the CDRs of the heavy chain vary.
VH: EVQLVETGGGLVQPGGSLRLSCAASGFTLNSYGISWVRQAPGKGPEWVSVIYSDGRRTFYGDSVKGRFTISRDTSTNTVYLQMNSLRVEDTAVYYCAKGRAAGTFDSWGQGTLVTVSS
VL: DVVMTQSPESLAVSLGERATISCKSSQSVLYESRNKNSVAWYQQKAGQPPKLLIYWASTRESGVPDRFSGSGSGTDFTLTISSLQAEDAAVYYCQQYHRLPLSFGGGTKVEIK

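Phage display of a naive human antibody library on the peptide gave the parent. These sequences belong to a second round, designed from the earlier measurements on random variants of the parent. Group labels follow the data file (Ctrl: baseline library sampled from a position-specific scoring matrix, with some repeated check sequences; Rand: our label for a block that the file lists under HC and that is probably the random mutants of the ten best first-round binders; En: ensemble of fine-tuned language models; GP: Gaussian process model; GPLM: also part of the Gaussian process libraries; HC: hill climbing; Gen: genetic algorithm; Gibbs: Gibbs sampling; a sequence that several methods proposed may carry one label only). The assay is AlphaSeq: two haploid yeast populations carry antibody and antigen on their surface. Pairs that bind mate more often; barcode pairs of the diploids are counted by sequencing. A regression on co-assayed BCL2-family reference pairs converts the normalised counts of each replicate to an apparent Kd. Mating was done six times.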

Each variant is given by its three heavy chain CDRs, as the data file delimits them; those of the parent are GFTLNSYGIS, VIYSDGRRTFYGDSVK, GRAAGTFDS. Scale: log10 of Kd in nM, estimated from mating counts; low values are strong binders. A mean of the replicates is given; it leaves out those without a signal. "nd" marks a missing value. The strain was present, yet no cells mated with the target were sequenced in any replicate, which points to weak or no binding. The authors' rule: three or more of the six replicates give a measured affinity, fewer mean a poor binder. As a blank, each scFv also met three strains without target: over all heavy chain designs, 1% of these pairings were detected, typically at 2.08 and seldom below 0.84. The control count says in how many pairings with the empty strains this scFv gave a signal. Where one sequence has several entries in the source, the replicates are pooled. Values of this round are not directly comparable with the first-round values of the same sequences.

| # | CDR-H1 | CDR-H2 | CDR-H3 | group | mean log10 Kd (nM) | replicates with signal | empty controls |
|---|---|---|---|---|---|---|---|
| 1 | GFDLDEYGIS | VIYADGMRTAYTDNVK | GEVAGTFDV | En_Gen | -0.55 | 5 of 6 | 0 of 18 |
| 2 | GFNLNEYGIS | VIYADGRRTFYTDDVK | GEIAGTFDL | En_HC | -0.68 | 6 of 6 | 0 of 18 |
| 3 | MFDLNSYGIS | VIYSDGKRTFYGDSVK | GRTAGTFDS | GP_Gen | 1.79 | 4 of 6 | 0 of 18 |
| 4 | GFELTEYGIS | VIYADGHRSFVTDSVK | GQNAGAFNV | En_Gibbs | -0.41 | 6 of 6 | 0 of 18 |
| 5 | GFTLNEYGIQ | VIYSDGRRTFYGDSVK | GRAAVTFDQ | Rand | nd | 0 of 6 | 0 of 18 |
| 6 | GFSLNTYGIS | VIYSDGRRTFYGDSVK | GRNAGTFDS | GPLM_Gen | 0.11 | 6 of 6 | 0 of 18 |
| 7 | GFDLNEYGIS | VIYADGMRTAYSDSVK | GNEAGTFDS | En_HC | -0.21 | 6 of 6 | 1 of 18 |
| 8 | PFELNSYGIS | VIYADGRRTFYGDSVK | GRAAGTFDV | GP_Gibbs | nd | 0 of 6 | 0 of 18 |
| 9 | GFNLNDYGIS | VIYSDGRRTFYGDDVK | GRYAHTFDS | Ctrl | 2.83 | 4 of 6 | 1 of 18 |
| 10 | MFSLNSYGIS | VIYADGRRTFYGDSVK | GRAAGTFDS | GP_Gen | 1.24 | 6 of 6 | 0 of 18 |
| 11 | GFNLDEYGIS | VIYADGVRKAYSSKVK | GVVWWFNLQ | En_Gibbs | nd | 0 of 6 | 1 of 18 |
| 12 | GFNLNSYGIS | VIYSDGRRTFYGDSVK | GRQAGTFDA | GP_Gen | 0.74 | 6 of 6 | 0 of 18 |
| 13 | GFTLNSYGIS | VIYSDGMRTFYDDSVK | GQAAGTFDS | Ctrl | 0.83 | 6 of 6 | 0 of 18 |
| 14 | GFDLDEYGIS | VIYADGMRTFYADSVK | GNVAGTFDL | En_Gen | 0.47 | 6 of 6 | 3 of 18 |
| 15 | KFGLNEYGIS | VIYSDGRRTFYTDSVK | GRFAGTFDS | GP_HC | nd | 0 of 6 | 0 of 18 |
| 16 | KFTLNSYGIS | VIYADGRRTFYGDSVK | GRAAGTFDS | GPLM_Gen | 0.06 | 6 of 6 | 1 of 18 |
| 17 | GFTLNSYGIS | VIYSDGRRTFYFDSVK | GQLAGTFDS | GP_HC | 1.70 | 2 of 6 | 0 of 18 |
| 18 | GKSVDEYGIS | VIYADGMRAEYQDSVK | GTTGGDVFV | En_Gibbs | nd | 0 of 6 | 0 of 18 |
| 19 | GFDLNEYGIS | VIYADGIRQHYKDKVK | GVVFGNVLF | En_Gibbs | nd | 0 of 6 | 0 of 18 |
| 20 | GFDLNEYGIS | VIYADGRRTFYIDSVK | GTNAGTFDQ | En_HC | -0.84 | 6 of 6 | 1 of 18 |
| 21 | GYDIQEYGIS | VIYADGVRVAYHDSVK | GQTAGIFLL | En_Gibbs | nd | 0 of 6 | 1 of 18 |
| 22 | GFGLNSYGIS | VIYSDGRRTFYADSVK | GRNAGTFDS | GP_Gen | 0.18 | 6 of 6 | 0 of 18 |
| 23 | GFYLNSYGIS | VIYSDGRRTFYDDSVK | GKLAGTFDS | GPLM_HC | 1.79 | 5 of 6 | 0 of 18 |
| 24 | GFQLDEYGIS | VIYADGQRTAYSKNVK | GTFDTKRID | En_Gibbs | nd | 0 of 6 | 0 of 18 |
| 25 | GFNLDEYGIS | VIYADGQRTAYADSVK | GNVAGTFDV | En_Gen | -0.63 | 6 of 6 | 0 of 18 |
| 26 | GFNLNSYGIS | VIYADGRRTFYGDSVK | GQAAGTFDS | GPLM_Gen | -0.25 | 6 of 6 | 1 of 18 |
| 27 | GFTLNEYGIS | VIYSDGRRTFYTDSVK | GFAAGTFDK | GP_HC | 0.40 | 6 of 6 | 2 of 18 |
| 28 | GFNINEYGVS | VIYADGMRTYYDDKVK | GSNGVMLLD | En_Gibbs | nd | 0 of 6 | 0 of 18 |
| 29 | GFDLNEYGIS | VIYADGRRTAYADSVK | GQTAGTFDV | En_Gen | -0.28 | 6 of 6 | 0 of 18 |
| 30 | GFTLNSYGIS | VIYADGRRTAYGDSVK | GRIAGTFDS | Ctrl | -0.21 | 6 of 6 | 0 of 18 |
| 31 | GFDLNEYGIS | VIYADGRRSAYQDSVK | GTNAGTFDQ | En_HC | -0.33 | 6 of 6 | 0 of 18 |
| 32 | GFDLNSYGIS | VIYSDGRRTFYCDQVK | GRTAGTFDS | GP_Gen | nd | 0 of 6 | 0 of 18 |
| 33 | GFDLNEYGIS | VIYSDGRRTFYGDSVK | GQAAGTFDS | GPLM_Gibbs | 0.31 | 6 of 6 | 0 of 18 |
| 34 | GFTLNSYGIS | VIYSDGRRTFYQDSVK | GQAADTFDS | Ctrl | nd | 0 of 6 | 0 of 18 |
| 35 | GDKLEAYGIS | VIYADGQRAAYVDKVK | GQTGGMFDQ | En_Gibbs | nd | 0 of 6 | 0 of 18 |
| 36 | GFTLNSYGIS | VIYSDGRRTQYSDSVK | GRAGGTFDS | Rand | nd | 0 of 6 | 0 of 18 |
| 37 | GFDLNEYGIS | VIYADGMRTAYADNVK | GEVAGTFDL | En_Gen | -0.19 | 5 of 6 | 0 of 18 |
| 38 | GFDLDEYGIS | VIYADGMRTAYADDVK | GENAGTFDI | En_Gen | -0.46 | 6 of 6 | 0 of 18 |
| 39 | GFTLNSYGIS | VIYADGRRTFYGDSVK | GSAAGTFDS | Ctrl+GPLM_Gen | -0.13 | 12 of 12 | 1 of 36 |
| 40 | GFKLDEYGIS | VIYADGLRMHYANSVK | GEMAGTFTT | En_Gibbs | -0.01 | 6 of 6 | 0 of 18 |
| 41 | GRTLNSYGIS | VIYSDGERTFYGDSVK | RRAAGTFNS | Ctrl | nd | 0 of 6 | 0 of 18 |
| 42 | GETLNEYGIS | VIYSDGRRTFYGDSVK | GRNSATFDS | Ctrl | nd | 0 of 6 | 3 of 18 |
| 43 | GFDLNEYGIS | VIYSDGRRTFYYDSVK | GRTAGTFDS | GP_HC | 0.11 | 1 of 6 | 0 of 18 |
| 44 | GFTLNEYGIS | VIYSDGRRTFYGDSVK | GRIAGTFDM | GPLM_HC | 0.64 | 6 of 6 | 0 of 18 |
| 45 | GFTLNQYGII | VIYSVGRRTFYSDSCK | GRAAGFFDS | Rand | nd | 0 of 6 | 0 of 18 |

From the AlphaSeq antibody data of Li et al. 2023 (doi:10.1038/s41467-023-39022-2), copy in the FLAb collection.